Screening results (PubChem BioAssay)
A selection: hits, their analogues and other compounds. The true share with any hit is near 3.7%.
miR-21 FLuc: miR-21 reporter, rising signal; HeLa miR-21 FLuc reporter, luciferase, 48 h; Potency, µM (titrated, usually from 38.3 µM), without a hit: top-dose reporter change, positive = more light; AID 2288; 340,000 tested, under 10 active; active = well fitted rising curve with a large enough effect; inconclusive = small, poorly fitted or top-dose-only effect; inactive = no such curve, though single readings can be large or run the other way;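 further: % of control where 0% means no effect; miR-21 action dims this reporter so a rising signal means less miR-21 action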
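Luminescence from a firefly luciferase reporter carrying a miR-21 binding site downstream, stably expressed under a CMV promoter in HeLa cells that make miR-21 endogenously, reports miRNA modulation after 48 h compound exposure up to approximately 40uM final.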
A549 tox: counter-screen for Nrf2 inhibitors: cytotoxicity in A549 cells | A549 ARE-Fluc cells, CellTiter-Fluor viability, 18-24 h | Potency, µM (doses to about 46 µM), for the others: at the highest dose activity change, negative = cytotoxicity, most hits filed as inhibitors | hit rate 0.16% among 390,000; note: potency is the fitted concentration of half-maximal effect; % is set by controls: 0 for no effect and ±100 for the full control effect
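A549 ARE_Fluc cells in 5% FBS OPTI-MEM were exposed to compounds in concentration-response for 18-24 h at 37 deg C. Viability was read by CellTiter-Fluor fluorescence (Ex 405/Em 525) after 30 min, before the luciferase read.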
TCR act: T cell receptor activation. primary human leukocytes, anti-CD3, IL-2 HTRF, 48 h. 330,000 tested, under 10 active. AID 504894. Potency, µM (top dose mostly 9.22 µM), inactives show at the top dose activation of IL-2 secretion, hits mostly activators; note: % of control where 0% means no effect
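Primary human leukocytes receive a-CD3 beads and test compound and are incubated 48 hr. Secreted IL-2 is then assayed by HTRF, measuring 665nm acceptor emission after 320nm excitation of the europium donor.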
ClpP mod: qHTS Assay for Activators of ClpP; AID 651965, 2013; hit rate 1.9% among 340,000; purified B. subtilis ClpP, FRET peptide cleavage, 20 min; ATP-dependent Clp protease proteolytic subunit (Bacillus subtilis (strain 168)), P80244; Potency, µM (top dose mostly 57.5 µM), inactives show top-dose activity change, negative = active; active = well fitted falling curve with a large enough effect; inconclusive = small, poorly fitted or top-dose-only effect; inactive = no such curve, though single readings can be large or run the other way; note: potency is the fitted concentration of half-maximal effect; the source files actives as falling curves though it sought activators and does not explain the sign; nearly all actives have a fitted effect of over 65% in size
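Purified B. subtilis ClpP, 10 microg/mL final in Tris/HCl pH8 with KCl, BSA, glycerol and Tween-20, cleaved an Abz/nitrotyrosine-quenched decapeptide. Fluorescence (ex 320, em 430) was read at 0 and 20 min at room temperature. Delta was normalized to 5.8 microM ADEP and DMSO/no-enzyme controls.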
Nrf2 ARE act: Nrf2 pathway activation. AREc32 ARE-luciferase reporter (MCF7-derived line), luminescence, 24 h. Potency, µM (series often up to 46.1 µM), inactives show top-dose activation, usual class: activators. hit rate 0.31% among 410,000. AID 624171; note: potency is the fitted concentration of half-maximal effect; % of control where 0% means no effect; nearly all actives have a fitted effect of over 65% in size
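ARE activation measured as luciferase luminescence (Steady-Glo, 30 min RT) in AREc32_Fluc cells after 24 hr compound exposure at 37 deg C, 5% CO2; cells seeded overnight at 1000/well in OPTI-MEM, 5% FBS.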
Nrf2 inh: inhibitors of Nrf2 signaling; A549 ARE-Fluc reporter, luciferase luminescence, 18-24 h; Potency, µM (doses to about 46 µM), for the others: top-dose activity change, negative = inhibition, most hits filed as inhibitors; hit rate 2.1% among 360,000; AID 504444; note: potency is the fitted concentration of half-maximal effect; % is set by controls: 0 for no effect and ±100 for the full control effect; nearly all actives have a fitted effect of over 60% in size
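Reporter: ARE-Fluc in A549. Exposure: 18-24 h, 37 °C, 5% CO2, 5% FBS OPTI-MEM. Readouts: fluorescent cytotoxicity (CellTiter-Fluor), then luminescent Nrf2 signal after BugLite.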
Active calls of the source: *; ? = inconclusive; / = not tested or not shown; [ ] = dose if it differs, or a comment. Unless noted, calls come from the whole dose curve; as a rule, active = well fitted curve in the direction sought with a large enough effect; inconclusive = small, poorly fitted or top-dose-only effect, or another doubt; inactive = no such curve, though single readings can be large; an effect the other way counts as inactive or inconclusive.

SMILES	miR-21 FLuc	A549 tox	TCR act	ClpP mod	Nrf2 ARE act	Nrf2 inh
O=C(c1ccc(Cn2c(=O)[nH]c3ccccc3c2=O)cc1)N1CCN(c2ccc(F)cc2)CC1	25.3%	-7.6%	/	-9.0%	-0.4%	10.3µM*
N#Cc1nc(Nc2cccc([N+](=O)[O-])c2)nc(NC2CCCC2)n1	/	-2.4%	/	/	/	16.4%
Fc1ccc(-[n+]2nc(Nc3ccccc3)sc2-c2ccc(OCc3ccccc3)cc2)cc1	-0.2%	-2.5%	4.4%	-1.1%	5.0%	-6.8%
O=C(c1ccc(F)c(S(=O)(=O)N2CCOCC2)c1)N1CCN(c2ccc(F)cc2)CC1	/	-0.6%	4.4%	0.3%	-0.5%	-20.9%
O=C(c1ccc(=O)oc1)N1CCN(c2ccc(F)cc2)CC1	-8.6%	-1.7%	-18.0%	31.6µM*	0.0%	7.7%
CCCCCn1c(=O)[nH]c2cc(C(=O)N3CCN(c4ccc(C(C)=O)cc4)CC3)ccc2c1=O	8.4%	-4.5%	0.4%	/	3.4%	20.6µM*
CC1(C)CC(=O)C=C(c2ccc3[nH]ccc3c2)C1	/	-2.5%	-0.1%	0.8%	0.9%	6.6%
CC/C=C1/N=C2C(=O)N(C)C(=O)N=C2N(C)N1	/	-5.6%	/	-3.1%	/	?
CN1N/C(=C\c2ccccc2)N=C2C(=O)N(C)C(=O)N=C21	/	5.8µM*	/	-2.0%	/	?
CSc1cccc(NC(=O)Cn2nnc(C(=O)NCCc3ccccc3)c2N)c1	-14.7%	4.3%	/	-0.9%	2.7%	/
CCCCn1cnc2c(SCc3ccc(Br)cc3)nc(N)nc21	/	-18.9%	0.2%	/	5.4%	18.4µM*
Brc1cc(Cc2nnc(-c3ccccc3)o2)c(Br)s1	-1.1%	-4.3%	-1.3%	/	8.91µM*	?
Cc1cc2ccccc2n1CCNC(=O)c1cc(C(F)(F)F)cc(C(F)(F)F)c1	-0.7%	3.8%	/	-9.7%	-0.9%	9.4%
CCN(CC)S(=O)(=O)c1ccc2oc(SCC(=O)NC3CC3)nc2c1	-11.5%	1.5%	-1.8%	0.9%	3.7%	16.8%
CCN(CC)S(=O)(=O)c1ccc2oc(SCc3ccc(F)cc3)nc2c1	8.5%	-17.1%	0.7%	0.9%	2.3%	18.4µM*
COc1ccccc1NS(=O)(=O)c1ccc2oc(SCc3ccc(C#N)cc3)nc2c1	?	-11.8%	-2.4%[46.1 µM]	1.6%	10.1%	16.4µM*
CNC(=O)CSc1nc2cc(S(=O)(=O)Nc3ccccc3OC)ccc2o1	-7.0%	2.5%	3.7%	/	4.4%	-7.0%
CCCCNC(=O)C1(C)CCCCN1Cc1ccccc1-c1ccccc1 (centres undefined)	/	/	/	0.1%	-0.8%	/
NC(=O)CSc1nnnn1-c1cccc(O)c1	-0.2%	2.8%	/	-2.3%	2.4%	/
Fc1ccc(-c2csc3ncnc(N4CCN(Cc5ccccc5)CC4)c23)cc1	-13.3%	-5.9%	1.7%	-3.0%	0.1%	6.2%
CCOc1ccccc1N1CCN(c2ncnc3scc(-c4ccc(OC)cc4)c23)CC1	-0.5%	-3.8%	-2.8%	-15.6%	-0.6%	?
COc1ccc(-c2csc3ncnc(N4CCN(c5ccccc5OC)CC4)c23)cc1	?	?	-5.8%	/	0.5%	23.1µM*
COc1ccccc1N1CCN(Cc2nc(-c3ccc(F)cc3)oc2C)CC1	0.4%	-11.8%	0.5%	-0.3%	4.1%	?
Fc1ccc(CN2CCN(c3ncnc4scc(-c5ccccc5)c34)CC2)cc1	7.1%	-3.4%	-13.5%	0.6%	-0.3%	23.1µM*
Cc1ccc(-c2csc3ncnc(N4CCN(Cc5ccccc5)CC4)c23)cc1	-3.3%	-9.2%	-4.8%	-2.7%	-0.2%	23.1µM*
COc1ccc(-c2nc(CN3CCN(c4ccccc4OC)CC3)c(C)o2)cc1	7.2%	?	3.3%	-4.4%	4.4%	18.4µM*
CCn1cc(C(=O)N2CCN(c3ccccc3OC)CC2)c(=O)c2cc(S(=O)(=O)N3CCC(C)CC3)ccc21	1.8%	0.0%	/	-2.4%	0.6%	-15.6%
Cc1ccc(-c2nc3cc(Cl)ccc3o2)cc1NC(=O)COc1ccccc1C	/	/	/	-8.3%	/	/

Given with two lines to a compound: entries from further up
Under each structure: miR-21 FLuc, A549 tox, TCR act, ClpP mod, Nrf2 ARE act, Nrf2 inh
- CC1(C)CC(=O)C=C(c2ccc3[nH]ccc3c2)C1
 : /, -2.5%, -0.1%, 0.8%, 0.9%, 6.6%
- CC/C=C1/N=C2C(=O)N(C)C(=O)N=C2N(C)N1
 : /, -5.6%, /, -3.1%, /, ?
- CN1N/C(=C\c2ccccc2)N=C2C(=O)N(C)C(=O)N=C21
 : /, 5.8µM*, /, -2.0%, /, ?
- CSc1cccc(NC(=O)Cn2nnc(C(=O)NCCc3ccccc3)c2N)c1
 : -14.7%, 4.3%, /, -0.9%, 2.7%, /
- CCCCn1cnc2c(SCc3ccc(Br)cc3)nc(N)nc21
 : /, -18.9%, 0.2%, /, 5.4%, 18.4µM*
